Measurements reported in PubChem BioAssay AID624287 (National Center for Advancing Translational Sciences (NCATS), 2012).
Only a part is listed here, and it is no random draw. Results filed as inconclusive are left out. Calls of active or inactive are those of the source. Calls come from the whole dose curve; as a rule, active = well fitted activation curve with a large enough effect; inconclusive = small, poorly fitted or top-dose-only effect, or another doubt; inactive = no such curve, though single readings can be large or run the other way; cell line not stated here.

assay: qHTS for Agonist of gsp, the Etiologic Mutation Responsible for Fibrous Dysplasia/McCune-Albright Syndrome: qHTS; details: gsp mutant cells, cAMP HTRF, 30 min; at 76.9 µM (top of the series) unless noted;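 note: phosphodiesterase inhibitor Ro 20-1724 added with compounds to block cAMP breakdown; nearly all actives have a fitted effect of over 60% in size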

Structure (SMILES) | activation (cAMP increase)
COc1ccccc1OP(C)(=O)Nc1ccc(C)c(C)c1 (stereo unspecified) | inactive: 27.4%
CCOP(=O)(Nc1ccccc1)OCC | inactive: 0%
Cc1cc(SC(NC(=O)c2ccc(F)cc2)C(Cl)(Cl)Cl)ncn1 (stereo unspecified) | inactive: 4.27%
COc1ccc(OP(C)(=O)Nc2ccccc2Br)cc1 (stereo unspecified) | inactive: -7.11% [at 15.4 µM]
O=[N+]([O-])c1cc([N+](=O)[O-])c(Nc2ccccn2)c([N+](=O)[O-])c1 | inactive: -3.21% [at 15.4 µM]
CC(C)CC(=O)NC(Sc1ccc(Cl)cc1)C(Cl)(Cl)Cl (stereo unspecified) | inactive: -29.4%
Nc1cc(N)c2nonc2c1[N+](=O)[O-] | inactive: -3.36% [at 15.4 µM]
O=C(NC(Sc1ccncn1)C(Cl)(Cl)Cl)c1ccccc1 (stereo unspecified) | inactive: -23.9% [at 15.4 µM]
Oc1ccccc1CNc1ccccn1 | inactive: 10.8%
COc1ccccc1OP(C)(=O)Nc1ccc(C)cc1C (stereo unspecified) | inactive: 4.5%
CP(=O)(Nc1ccccn1)Oc1ccccc1 (stereo unspecified) | inactive: 13.1%
CCc1ccc(OP(C)(=O)O)cc1 | inactive: -55.4%
NC(=O)c1cc([N+](=O)[O-])cc([N+](=O)[O-])c1N | inactive: -23.8%
Cc1ccc(N/C(=N/P(=O)(N2CCOCC2)N2CCOCC2)N2CCOCC2)cc1 | inactive: 0.82% [at 15.4 µM]
COc1ccccc1OP(C)(=O)Nc1ccc(Br)cc1 (stereo unspecified) | inactive: 21.6% [at 15.4 µM]
Cc1ccc(OP(=O)(Nc2nccs2)Oc2ccc(C)cc2)cc1 | inactive: -9.27% [at 15.4 µM]
COc1ccc(OP(C)(=O)Nc2ccccn2)cc1 (stereo unspecified) | inactive: -2.65%
COc1ccccc1OP(=O)(Nc1ccc(C)cn1)Oc1ccccc1OC | inactive: 3.46% [at 15.4 µM]
CN(C)CCOC(=O)C(O)(c1ccccc1)C1CCCC1 (stereo unspecified) | inactive: -24.2%
Clc1ccc(Cl)c(NC2=NCC(CBr)S2)c1 (stereo unspecified) | inactive: 2.07% [at 15.4 µM]
CN1CCCC(OC(=O)C(c2ccccc2)c2ccccc2)C1 (stereo unspecified) | inactive: 3.06%
COC(=O)C1(C)COP(=O)(NCc2ccccc2)OC1 (stereo unspecified) | inactive: -96.9%
N#C/C(=C\c1ccc(N(CCBr)CCBr)cc1)C(N)=O | inactive: -53.6%
CC(=O)c1ccc(N2CC2c2ccncc2)cc1 (stereo unspecified) | inactive: 13.6%
C[C@H]1OP(=O)(Oc2ccccc2)C[C@@H]2O[C@@H]21 (stereo partly specified) | inactive: -37.8%
O=C(OCCN1CCN(CCOCc2ccccc2)CC1)C(O)(c1ccccc1)c1ccccc1 | inactive: -1.37%

Structure (SMILES) | activation (cAMP increase)
Cc1ccccc1CN(C)C(=O)COC(=O)C(O)(c1ccccc1)c1ccccc1 | inactive: 3.61%
CC(=O)Nc1ccc(Oc2c([N+](=O)[O-])cc([N+](=O)[O-])cc2[N+](=O)[O-])cc1 | inactive: -28.9%
CC(=O)Nc1ccc([As](=O)(O)O)c(O)c1 | inactive: 3.94% [at 15.4 µM]
CCOc1ccc(C2=NCC(CBr)S2)cc1 (stereo unspecified) | inactive: 1.03%
O=P1(Nc2nc3ccc(Cl)cc3s2)COc2ccccc2O1 (stereo unspecified) | inactive: -29.1%
CP(=O)(Nc1ccccc1F)Oc1ccccc1 (stereo unspecified) | inactive: 19.8%
CCc1cc(O)c([N+](=O)[O-])c(C)c1[N+](=O)[O-] | inactive: 2.14% [at 15.4 µM]
CC(C)c1ccc(OP(C)(=O)Nc2ccc(SC(F)(F)F)cc2)cc1 (stereo unspecified) | inactive: 0.764%
CC(C)(C)C(=O)NC(Sc1ccccc1)C(Cl)(Cl)Cl (stereo unspecified) | inactive: -2.17% [at 15.4 µM]
CC(=O)NC(SC(=S)N(CC(C)C)CC(C)C)C(Cl)(Cl)Cl (stereo unspecified) | inactive: -22.4%
Cc1ccc(OP(=O)(Nc2ccccn2)Oc2ccc(C)cc2)cc1 | inactive: 9.1% [at 15.4 µM]
COC(=O)c1cc2c(s1)N=C(c1ccccc1)N(C)P2(=O)N1CCOCC1 (stereo unspecified) | inactive: -10.9%
Cc1c([N+](=O)[O-])cc([N+](=O)[O-])c(Br)c1[N+](=O)[O-] | inactive: -4.37% [at 15.4 µM]
CCC(=O)N1C2C3N(C(=O)CC)C1C1N(C(=O)CC)C(C(N1C(=O)CC)N3C(=O)CC)N2C(=O)CC | inactive: 18.4%
CCN(CC)CCCOC(=O)C(O)(c1ccccc1)C1CCCCC1 (stereo unspecified) | inactive: 27.8%
O=C(OC1CN2CCC1CC2)c1ccccc1 (stereo unspecified) | inactive: 2.27% [at 15.4 µM]
CP(=O)(Nc1ccccc1)Oc1ccc(F)cc1 (stereo unspecified) | inactive: 6.35%
CN(C)C(=O)Oc1noc2ccccc12 | inactive: 18.5% [at 15.4 µM]
O=c1c2cc([N+](=O)[O-])ccc2[nH]c2c([N+](=O)[O-])cc([N+](=O)[O-])cc12 | inactive: -22.3%
CCCCCOc1ccc(NP(C)(=O)Oc2ccc(Cl)cc2Cl)cc1 (stereo unspecified) | inactive: 26.1%
Cc1ccccc1OP(=O)(Nc1ccccn1)Oc1ccccc1C | inactive: 0.89% [at 15.4 µM]
CC(NC(=O)COC(=O)C(O)(c1ccccc1)c1ccccc1)c1ccccc1 (stereo unspecified) | inactive: -99.7%
O=C(NC1CCS(=O)(=O)C1)NP(=S)(Oc1ccccc1)Oc1ccccc1 (stereo unspecified) | inactive: -17.4% [at 15.4 µM]
CCNC(=S)/N=C(\N)N[N+](=O)[O-] | inactive: -0.266%
Cc1ccc(NP(=O)(Oc2cccc(C)c2)Oc2cccc(C)c2)nc1 | inactive: -3.88% [at 15.4 µM]
c1ccc(-c2nn[nH]n2)c(-c2nn[nH]n2)c1 | inactive: 0.653% [at 15.4 µM]

Structure (SMILES) | activation (cAMP increase)
CCOC(=O)c1ccc(NP(C)(=O)Oc2ccc(F)cc2)cc1 (stereo unspecified) | inactive: 1.65% [at 15.4 µM]
COc1ccc(OP(C)(=O)Nc2ccc(SC(F)(F)F)cc2)cc1 (stereo unspecified) | inactive: -9.69% [at 15.4 µM]
CC(=O)NC(SC(=S)N(C)C)C(Cl)(Cl)Cl (stereo unspecified) | inactive: 3.8%
O=[N+]([O-])c1ccc(O)c(/C=N/Nc2ccc([N+](=O)[O-])cc2[N+](=O)[O-])c1 | inactive: 1.24%
Cc1cc(-c2cccc3ccccc23)c(C)cn1.O=[N+]([O-])c1cc([N+](=O)[O-])c(O)c([N+](=O)[O-])c1 | inactive: -14.5% [at 15.4 µM]
O=[As](O)(c1ccccc1)c1ccc(O)cc1 | inactive: -8.07% [at 15.4 µM]
Nc1ccc([As](=O)(O)c2ccc([N+](=O)[O-])cc2)cc1 | inactive: -26.9% [at 15.4 µM]
C(Cc1nn[nH]n1)Cc1nn[nH]n1 | inactive: 15.1%
O=C(OC1CN2CCC1CC2)c1cccc(Cl)c1 (stereo unspecified) | inactive: 7.9%
COc1ccc(N)c([N+](=O)[O-])c1[N+](=O)[O-] | inactive: 8.4%
COc1ccc(OP(C)(=O)Nc2cccc(Br)c2)cc1 (stereo unspecified) | inactive: 10.4%
CN(C)C1(CNC(=O)c2ccc(Cl)c(S(N)(=O)=O)c2)CCCCC1 | inactive: 10.8% [at 15.4 µM]
O=P(Nc1ccccn1)(c1ccc(Br)cc1)c1ccc(Br)cc1 | inactive: 11.9%
C[C@H]1OP(=O)(Oc2ccccc2)[C@H](O)[C@H](O)[C@H]1N=[N+]=[N-] (stereo partly specified) | inactive: 7.87%
O=P(Nc1nc2ccccc2s1)(c1ccccc1)c1ccccc1 | inactive: 3.35% [at 15.4 µM]
CN(C)CCOC(=O)C(O)(c1ccccc1)C1CCCCC1 (stereo unspecified) | inactive: -0.521%
COc1ccc(NP(C)(=O)Oc2ccccc2OC)cc1 (stereo unspecified) | inactive: 1.18% [at 15.4 µM]
CP(=O)(Nc1ccc2c(c1)OCCO2)Oc1ccccc1 (stereo unspecified) | inactive: 11.2%
Cc1ccccc1NP(C)(=O)Nc1ccccc1C | inactive: -48.4%
CP(=O)(Nc1ccc(SC(F)(F)F)cc1)Oc1ccc(F)cc1 (stereo unspecified) | inactive: 1.55%
O=P(Nc1nccs1)(c1ccccc1)c1ccccc1 | inactive: -2.23%
CC(C)C(=O)NC(Sc1ccccc1)C(Cl)(Cl)Cl (stereo unspecified) | inactive: -1.51% [at 15.4 µM]
CCOP(C)(=S)SCC(=O)NC(C)(CC)C(=O)O (stereo unspecified) | inactive: -10.2%
c1nnnn1CCn1cnnn1 | inactive: -9.87%
